# Compounds with a hit are over-represented: about 1.7% of the library has one in this group of screens.
# Yeast UUG start: alters start codon recognition fidelity in yeast; S. cerevisiae UUG-firefly luciferase reporter, luminescence/redox ratio; activity score, % at 18.7 µM; actives 0.13% (n = 350,000);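 active means replicate mean at a twofold rise or more, about +100% in these data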;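 further: firefly luciferase made from a UUG start codon reports start codon fidelity; reporter light over untreated wells divided by growth signal over untreated wells; some hits fall short of that in this replicate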
# dFosB act-1: enhances mouse delta FosB homodimer DNA binding; P13346; purified delta FosB, TAMRA-CDK5 oligo fluorescence polarization; percent of positive-control signal above neutral wells; activation, % at 25 µM; 340,000 compounds, 0.99% hits; AID 493131;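 active means mean activation above about 17%, with every replicate also reaching it, limit read from the data, passing the limit was not always enough; inconclusive means only one of the two conditions met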
# CAL PDZ FP-1: human CAL PDZ-peptide interaction inhibition. inhibition, % at 20 µM. 330,000 compounds, 0.02% hits. purified CAL PDZ, TMR-peptide fluorescence polarization, 1 h. Q9HD26. AID 504414;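 active means highest replicate inhibition of at least 40%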;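 further: plate controls were DMSO neutral control wells for no effect and unlabeled competitor peptide control wells for full effect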
#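 material = purified tagged CAL PDZ domain construct (CerCALP) | buffer or medium = sodium phosphate/NaCl buffer pH 7.4 with TCEP, IgG, Thesit | reagent = TMR-labelled reporter peptide T*-PRC34 bound in PDZ groove | incubation = 1 h room-temperature incubation prior to read | measured by = fluorescence polarization (mP) | evaluation = percent inhibition from loss of millipolarization | control set = unlabelled peptide and DMSO controls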
# Dyrk1A ADPGlo: inhibitors of rat Dyrk1A kinase | ADP-Glo luminescence, NFATc1 peptide | Q63470 | inhibition, % at 12.5 µM | 310,000 compounds, 0.43% hits; in the data active means inhibition above about 50%;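 further: plate controls were vehicle with enzyme for no effect and no enzyme for full effect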
# CAL PDZ FP-2: inhibitors of human CAL PDZ peptide binding | inhibition, % at 24.9 µM | AID 602252 | purified CAL PDZ, TMR-peptide fluorescence polarization, 1 h | 300,000 compounds, 0.92% hits;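 active means mean inhibition of at least 30% with at least half of replicates also reaching 30%; inconclusive means no clear call, values can overlap the other calls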;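 further: 0% = DMSO neutral control and 100% = excess unlabeled competitor peptide PRC23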
# CDK5 p35 inh: blocks human CDK5/p35 kinase activity; Recombinant CDK5/p35, ADP-Glo luminescence, 60 min; inhibition, % at 10 µM; 330,000 compounds, 0.01% hits;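 active means highest replicate inhibition of at least 50% and at least 75% of replicates reaching 50%; inconclusive means only one of the two criteria met; inactive means both criteria failed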;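 further: plate controls were DMSO neutral control for no effect and GW8510 at 10 µM for full effect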
# dFosB act-2: activators of mouse delta FosB homodimer DNA binding; shares compounds with dFosB act-1; purified delta FosB, TAMRA-CDK5 oligo fluorescence polarization; normalised: neutral wells 0, positive control 100; activation, % at 24.9 µM; 2,400 tested, under 10 active;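 active means highest replicate activation at or above 34% and every replicate reaching that threshold; inconclusive means meets only one of the two criteria; inactive means meets neither criterion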;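 further: higher polarization means more probe DNA bound by delta FosB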
# The depositor's hits bear a star; u = inconclusive; x = no result.
# Second line of a record: dFosB act-2, CAL PDZ FP-1, Dyrk1A ADPGlo, Yeast UUG start, CDK5 p35 inh, dFosB act-1, CAL PDZ FP-2
> Nc1ccc(C(=O)Nc2ccc3nc(-c4cccnc4)[nH]c3c2)cc1
→ x, x, 6.4, -23.4, -0.5, 2.0, -5.5
> COC(=O)c1ccc(C2C(Oc3ccc(OC)cc3)C(=O)N2CCc2ccc(F)cc2)cc1 (configuration not stated)
→ -0.6, -0.3, 0.7, x, 1.1, 23.2*, -2.1
> COc1ccc(OC2C(=O)N(Cc3ccc(F)cc3)C2c2cc(OC)c(OC)c(OC)c2)cc1 (configuration not stated)
→ x, -2.7, -5.7, x, -0.9, -2.6, -1.0
> O=C(O)c1ccccc1OC(C(=O)Nc1cc(Cl)cc(Cl)c1)c1ccccc1 (configuration not stated)
→ 0.3, -3.4, -1.2, -17.5, -2.6, 35.8*, 2.2
> O=C(CCCn1c(=O)[nH]c2ccc(Br)cc2c1=O)NCc1ccc(Cl)cc1
→ 0.3, 8.3, -4.7, x, -1.2, 99.8*, -2.9
> O=C(CCn1c(=S)[nH]c2ccccc2c1=O)Nc1cccc(Cl)c1
→ 2.7, -1.4, 3.5, -19.5, 1.0, 47.1*, 1.8
> COc1cccc(CNC(=O)CCCn2c(=S)[nH]c3cc4c(cc3c2=O)OCO4)c1
→ 3.3, -2.2, -2.6, -0.8, -2.7, 32.2*, -2.8
> O=C(CCCCCn1c(=S)[nH]c2ccccc2c1=O)NCc1ccc2c(c1)OCO2
→ 2.6, -1.6, -1.6, -8.3, -1.2, 44.0*, -2.6
> COC(=O)c1ccc2c(=O)n(CCCCCC(=O)NCc3ccc4c(c3)OCO4)c(=O)[nH]c2c1
→ x, -2.4, -1.7, -19.2, -0.4, 4.6, 0.2
> COc1ccc(NC(=O)CCn2c(=S)[nH]c3ccccc3c2=O)cc1Cl
→ x, x, x, -19.6, x, x, x
> C[C@H]1CN([C@@H](C)CO)C(=O)Cc2cc(NS(C)(=O)=O)ccc2O[C@H]1CN(C)C(=O)Nc1ccc(C(F)(F)F)cc1
→ x, x, x, -0.8, x, x, x
> COc1ccc(S(=O)(=O)Nc2ccc3c(c2)CC(=O)N([C@H](C)CO)C[C@H](C)[C@H](CN(C)C(=O)Nc2ccc(F)cc2)O3)cc1
→ x, x, x, -7.0, x, x, x
> C[C@@H]1CCCCO[C@H](CN(C)S(C)(=O)=O)[C@H](C)CN([C@@H](C)CO)C(=O)c2cc(NC(=O)Nc3ccc(F)cc3)ccc2O1
→ x, x, x, -7.0, x, x, x
> O=C(c1ccc2c(=O)n(Cc3ccc4c(c3)OCO4)c(=S)[nH]c2c1)N1CCCCC1
→ x, 0.5, 3.4, x, 0.3, 7.6, -5.1
> O=c1c2ccccc2[nH]c(=S)n1Cc1ccc2c(c1)OCO2
→ 4.2, -0.3, -4.9, -17.5, -1.2, 21.2*, -5.8
> C[C@H]1CN([C@@H](C)CO)S(=O)(=O)c2ccc(-c3ccc(F)cc3)cc2O[C@@H]1CN(C)C(=O)C1CC1
→ x, x, x, 4.2, x, x, x
> COc1ccc(Br)cc1/C=C/C(=O)NC(=S)Nc1ccc(CN2CCOCC2)cc1
→ 2.3, -1.3, -3.0, -21.7, 2.0, 48.3*, -1.0
> C[C@H](CO)N1C[C@H](C)[C@@H](CN(C)C(=O)C2CCC2)Oc2ncc(-c3cccc(C#N)c3)cc2C1=O
→ x, x, x, -11.8, x, x, x
> COc1ccc(-c2noc(CCC(=O)NCc3cc(Br)ccc3OC)n2)cc1
→ x, -0.4, -4.3, -2.4, -0.5, 3.2, x
> COc1ccc(Br)cc1CNC(=O)CCc1nc(-c2ccc(C)cc2)no1
→ -0.2, -0.4, 7.4, 0.5, -1.2, 20.6*, -2.3

# Arranged by the number under Dyrk1A ADPGlo (ascending): 5 of the compounds above
SMILES	CAL PDZ FP-1	Dyrk1A ADPGlo	Yeast UUG start	CDK5 p35 inh	dFosB act-1	CAL PDZ FP-2
O=c1c2ccccc2[nH]c(=S)n1Cc1ccc2c(c1)OCO2	-0.3	-4.9	-17.5	-1.2	21.2*	-5.8
O=C(CCCCCn1c(=S)[nH]c2ccccc2c1=O)NCc1ccc2c(c1)OCO2	-1.6	-1.6	-8.3	-1.2	44.0*	-2.6
COC(=O)c1ccc(C2C(Oc3ccc(OC)cc3)C(=O)N2CCc2ccc(F)cc2)cc1 (configuration not stated)	-0.3	0.7	x	1.1	23.2*	-2.1
O=C(c1ccc2c(=O)n(Cc3ccc4c(c3)OCO4)c(=S)[nH]c2c1)N1CCCCC1	0.5	3.4	x	0.3	7.6	-5.1
O=C(CCn1c(=S)[nH]c2ccccc2c1=O)Nc1cccc(Cl)c1	-1.4	3.5	-19.5	1.0	47.1*	1.8

# Single records, as listed above. Order of screens: dFosB act-2, CAL PDZ FP-1, Dyrk1A ADPGlo, Yeast UUG start, CDK5 p35 inh, dFosB act-1, CAL PDZ FP-2
# `COc1ccc(-c2noc(CCC(=O)NCc3cc(Br)ccc3OC)n2)cc1` in the list: x, -0.4, -4.3, -2.4, -0.5, 3.2, x
# `COc1ccc(Br)cc1/C=C/C(=O)NC(=S)Nc1ccc(CN2CCOCC2)cc1` in the list: 2.3, -1.3, -3.0, -21.7, 2.0, 48.3*, -1.0

# Continuation.
# Second line of a record: dFosB act-2, CAL PDZ FP-1, Dyrk1A ADPGlo, Yeast UUG start, CDK5 p35 inh, dFosB act-1, CAL PDZ FP-2
> O=C(CSc1nc(-c2ccccc2)cc(C(F)(F)F)n1)NCc1cccs1
→ 0.7, -1.3, -6.1, x, -1.6, 26.8*, -0.4
> O=C(CSc1nc(-c2cccs2)nc2ccccc12)NC1CCS(=O)(=O)C1 (configuration not stated)
→ -3.0, 0.6, x, -2.8, -2.3, 34.2*, -1.1
> Cc1cc(C)c2nc(NCCCNC(=S)NCCCN(C)C)c(C#N)cc2c1
→ u, -0.4, x, x, 1.5, 31.6*, -4.9
> COc1ccc(/C=C/C(=O)OCC(=O)Nc2cc(C(F)(F)F)ccc2Cl)cc1
→ 0.9, -2.9, 1.0, x, 0.7, 30.8*, -2.7
> O=C(COC(=O)/C=C/c1cccc(C(F)(F)F)c1)NC(=O)NCc1ccccc1
→ 1.6, 0.3, -0.5, -16.6, -1.5, 24.5*, -4.1
> O=C(COC(=O)/C=C/c1cccc(C(F)(F)F)c1)NC(c1ccccc1)c1ccccc1
→ 4.9, -3.7, 1.2, -13.4, -4.5, 26.3*, 0.6
> CCN(CC(=O)Nc1ccc(NC(C)=O)cc1)C(=O)/C=C/c1cn(-c2ccccc2)nc1-c1ccc(F)cc1
→ 0.7, -0.6, -2.7, x, -0.9, 21.0*, -1.9
> O=c1[nH]c(/C=C/c2cccc3ccccc23)nc2ccccc12
→ -1.5, 1.1, 1.0, x, 0.1, 25.5*, x
> O=c1[nH]c(/C=C/c2ccccc2F)nc2ccccc12
→ x, 15.0, -2.4, -8.7, 1.8, -9.3, 1.1
> C[C@@H]1CN([C@H](C)CO)C(=O)c2cc(-c3ccc(F)cc3)cnc2O[C@@H]1CN(C)CC1CCCC1
→ x, x, x, 19.6, x, x, x
> O=C(OCc1ccc2c(c1)OCO2)c1ccc(S(=O)(=O)N2CCCCC2)cc1
→ -5.2, -1.3, 0.2, x, -1.1, 35.1*, -0.8
> Oc1ccc(Cl)cc1-c1cc(-c2cccc(Br)c2)n[nH]1
→ -0.5, -2.0, -5.7, -8.8, -0.1, 45.7*, -1.6
> COc1cc(-c2cc(C(=O)Nc3cccc(S(=O)(=O)N(C)C)c3)c3ccccc3n2)cc(OC)c1OC
→ 5.0, -1.6, -7.2, -1.7, 0.3, 40.8*, x
> COc1ccc(NC(=O)c2cc(-c3cc(OC)c(OC)c(OC)c3)nc3ccccc23)cc1OC
→ x, -1.2, 0.6, -3.6, 0.3, -8.5, -5.8
> COc1ccc(-c2cc(C(=O)Nc3nc4c(C)cccc4s3)c3ccccc3n2)cc1OC
→ 1.2, -0.9, -5.7, x, 0.7, 39.1*, x
> C[C@H]1CN([C@@H](C)CO)C(=O)Cc2cc(NS(=O)(=O)c3ccc(F)cc3)ccc2O[C@@H]1CN(C)C
→ x, x, x, -4.7, x, x, x
> CCCC(=O)Nc1ccc2c(c1)C(=O)N(C)[C@H]1CC[C@@H](CC(=O)NCCOC)O[C@@H]1CO2
→ x, x, x, -6.3, x, x, x
> NS(=O)(=O)c1ccc(CCNC(=O)C2CCC(Cn3c(=S)[nH]c4ccccc4c3=O)CC2)cc1 (configuration not stated)
→ 3.3, -0.2, 1.1, x, 0.0, 17.9*, x
> O=C(NCCc1ccccc1)C1CCC(CNc2nc(=S)[nH]c3ccccc23)CC1 (configuration not stated)
→ 5.8, -0.2, -2.6, -24.4, -2.3, 23.6*, 4.7
> CC(=O)NCCNC(=O)C1CCC(CNc2nc(=S)[nH]c3ccccc23)CC1 (configuration not stated)
→ x, -0.2, 11.0, -7.7, -1.5, -0.7, -1.6
> COc1ccccc1S(=O)(=O)N[C@@H]1CC[C@H](CCNC(=O)C2CCCC2)O[C@@H]1CO
→ x, x, x, -2.4, x, x, x

# Bioassay records from PubChem.
